## Antibody variant affinities, Ab-14 light chain, assay 1

Source: Engelhart et al. 2022 (doi:10.1038/s41597-022-01779-4), MIT Lincoln Laboratory and A-Alpha Bio; data file from the FLAb repository.

Target peptide (SARS-CoV-2 spike, HR2 region): PDVDLGDISGINAS

Parent: Ab-14, a human scFv built as VH, the linker GGGGSGGGGSGGGGS, VL. Only the CDRs of the light chain vary.
VH: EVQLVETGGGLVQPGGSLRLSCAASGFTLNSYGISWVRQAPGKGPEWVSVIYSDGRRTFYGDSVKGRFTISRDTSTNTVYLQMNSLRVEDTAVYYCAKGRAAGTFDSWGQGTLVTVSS
VL: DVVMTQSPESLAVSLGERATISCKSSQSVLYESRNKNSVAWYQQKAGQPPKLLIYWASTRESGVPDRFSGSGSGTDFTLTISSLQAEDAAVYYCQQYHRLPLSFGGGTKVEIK

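The parent was found by panning a naive human phage display library on the peptide. AAYL50 was designed without a model: most single CDR substitutions and a random sample of double and triple ones. In AlphaSeq, yeast of one mating type display the scFv and yeast of the other type display the target. The frequency of each diploid, read from paired DNA barcodes, reflects how well the two displayed proteins bind. The ratio of observed to expected reads was calibrated, replicate by replicate, on BCL2-family standards whose Kd was known from biolayer interferometry. Mating was done three times.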

Changes read parent residue, position, new residue, counted from the first residue of the VL shown. All variants listed here change S62 of the VL, counted from its first residue. Kd is apparent (estimated from mating counts) and averaged on the log scale over replicates with a signal. Smaller is tighter. Where no diploid with the target was found in any replicate, the entry reads "nd": below detection, most likely a poor binder, though not proof of it. In this assay the parent's reference entry averaged 4.4 nM; its copy inside this library read 48 nM. Background: pairings of library AAYL50 with three empty control strains gave a value in 18% of cases (median 15 µM, 5th percentile 970 nM). Values in that range, when seen in few replicates, are hard to tell from nonspecific mating.

The variant Q27E/S33R/S62V gave 24 nM (3 of 3 replicates). With Q27P/K36P/S62D the result was 1.3 nM (3 of 3 replicates). The variant V39G/S62D/L102P showed nd (0 of 3 replicates). The variant S58Y/S62M gave 27 nM (3 of 3 replicates). With S26M/S62P the result was 9.0 nM (3 of 3 replicates).

For K24C/S62K, the assay gave 250 nM (3 of 3 replicates). The variant S26P/L30G/S62K gave 3.4 nM (3 of 3 replicates). The variant S62A showed 4.6 nM (3 of 3 replicates). With S38R/R60S/S62A the result was 61 µM (2 of 3 replicates). The variant N37P/W56Y/S62R gave 37 nM (3 of 3 replicates).

The variant R34P/S62I/L102I gave 5.1 nM (3 of 3 replicates). The variant A40W/S62G showed nd (0 of 3 replicates). The variant V39L/S62D/L102R gave 41 nM (3 of 3 replicates). With A57T/R60Y/S62R the result was nd (0 of 3 replicates). For N35K/A40Y/S62G, the assay gave 74 µM (2 of 3 replicates).

The variant L30G/S62T/L100A showed nd (0 of 3 replicates). With K36T/S62N/H98Y the result was 61 nM (3 of 3 replicates). The variant T59E/S62E/R99I gave 8.1 nM (3 of 3 replicates). For S62L/Q96A/R99S, the assay gave 1.3 µM (2 of 3 replicates). The variant A57V/S62A/Y97N showed 39 nM (3 of 3 replicates).

The variant S26H/R60N/S62H showed 6.1 µM (3 of 3 replicates). With S62R/Q96G/Y97T the result was 55 µM (1 of 3 replicates). The variant S58I/E61Q/S62A gave 360 nM (3 of 3 replicates). The variant S62C/L100A gave 210 nM (3 of 3 replicates). The variant S58L/S62D/L100Y gave nd (0 of 3 replicates).

The variant S28C/S62T/L102V showed 130 nM (3 of 3 replicates). The variant S62K/P101I/L102R gave 130 nM (3 of 3 replicates). With Q27V/N35I/S62I the result was 220 nM (3 of 3 replicates). With S26A/S58I/S62W the result was nd (0 of 3 replicates). The variant V29G/S62Q/R99E gave nd (0 of 3 replicates).

For W56G/S62F/P101E, the assay gave 840 pM (3 of 3 replicates). With S25A/V29T/S62N the result was 10 nM (3 of 3 replicates). The variant R60L/S62F/P101D gave 800 nM (3 of 3 replicates). With S25R/T59F/S62L the result was 8.2 µM (2 of 3 replicates). The variant S26R/S62W/R99T gave 120 nM (3 of 3 replicates).

The variant S28D/S62M/Q96V showed nd (0 of 3 replicates). The variant W56A/S62E/H98T gave 160 nM (3 of 3 replicates). For A40W/S62V/P101S, the assay gave 94 µM (1 of 3 replicates). For V29C/T59A/S62G, the assay gave nd (0 of 3 replicates). For K24F/S62E/Q96R, the assay gave 38 µM (1 of 3 replicates).

With S28P/S62G/R99K the result was 63 nM (3 of 3 replicates).